Apparent affinities of Ab-14 variants for a coronavirus HR2 peptide

Data: MIT Lincoln Laboratory AlphaSeq set, Engelhart et al. 2022, doi:10.1038/s41597-022-01779-4, as distributed in FLAb.

Target peptide (SARS-CoV-2 spike, HR2 region): PDVDLGDISGINAS

Ab-14 is the parent antibody, in scFv form: VH, then the linker GGGGSGGGGSGGGGS, then VL. The heavy chain is unchanged in all variants.
VH: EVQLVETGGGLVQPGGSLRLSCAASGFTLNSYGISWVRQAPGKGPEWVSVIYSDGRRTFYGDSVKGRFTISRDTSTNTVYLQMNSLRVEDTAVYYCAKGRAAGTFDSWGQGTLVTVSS
VL: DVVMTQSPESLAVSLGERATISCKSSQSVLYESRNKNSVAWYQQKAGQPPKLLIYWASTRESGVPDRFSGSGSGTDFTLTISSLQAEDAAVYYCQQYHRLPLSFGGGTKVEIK

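Phage display of a naive human antibody library on the peptide gave the parent. AAYL50 was designed without a model: most single CDR substitutions and a random sample of double and triple ones. Affinity was read by AlphaSeq, a pooled yeast mating assay with surface-displayed partners. The frequency of each diploid, read from paired DNA barcodes, reflects how well the two displayed proteins bind. Scores were corrected for input abundance and mapped to Kd with protein pairs of known affinity run in the same pool. There are three technical replicates.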

Substitutions are numbered in sequence along the VL above, starting at 1 (not Kabat).
Affinities are written as log10 Kd with Kd in nM; a lower number is a better binder.
"ND" marks a missing value. The strain was present, yet no cells mated with the target were sequenced in that replicate, which points to weak or no binding.
For reference, the parent read 0.65 as the reference entry and 1.68 as a member of this library.
Three control strains display no target. For library AAYL50, 18% of the pairings with them gave a signal, with a median of 4.19 and one signal in twenty below 2.99, so weak values seen in few replicates may be background.

log10 Kd (nM) by replicate,changes
ND ND 3.90,Y31K+N37L+A40F
ND 2.73 ND,A40S+W56I+P101R
1.60 2.01 2.07,L30E+S38H+R99P
ND ND ND,K36D+S62N+L100C
ND ND ND,N35F+A40N+W56S
1.29 1.39 1.42,V29N+Y31C+E61L
ND ND ND,E32T+N35P+S62C
1.71 1.73 2.74,S33N+Q96G+H98A
1.23 1.29 1.17,P101K+L102F
4.45 ND ND,A40L+E61D+S62A
1.43 1.32 1.28,S26A+E61F+H98E
0.34 0.49 0.49,K36F+W56Q+S103R
5.33 ND ND,K36G+L100W+L102S
3.12 2.83 3.68,S28F+R34I+L102R
ND 5.19 ND,W56G+Q96I+R99C
3.07 3.19 ND,V29H+E32Y+S103H
ND ND ND,S58M+Q96E+L100K
ND ND ND,S38N+S62L+R99P
0.78 1.14 1.01,S25H+Q27T+H98T
ND ND ND,S25F+Q27M+W56P
ND ND ND,K24L+L30D+R99S
2.39 2.62 2.06,V29R+S58A
0.41 0.69 0.57,S25D+S33G
0.81 1.07 0.93,K36Y+Q96C
2.65 ND ND,S25M+S38K+T59E
ND ND ND,S28L+T59I+L102A
ND ND ND,S28R+V29L+L102Q
ND ND ND,S25R+S33R+Y97L
ND ND ND,S33C+S58I+R99Y
ND 4.97 ND,V29P+E32C+L100G
-0.15 0.19 -0.05,S25F+Y31K+N35L
ND ND ND,Y97A+R99F+L102E
1.49 1.59 1.73,Q27N+S38W+H98M
ND ND ND,S58C+Q96F+P101R
ND ND ND,E32F+L100A+S103D
ND ND ND,A57Q+Q95V+L102Q
1.00 1.12 1.30,S25M+Y31C+Q95H
1.35 1.83 1.76,S38H+S62M
2.50 2.82 2.43,V29N+S33I+R99G
2.93 3.10 3.34,S26L+S28A+E61R
2.48 2.70 2.67,S58H+H98M+L102F
5.26 ND 5.25,S28T+K36A+S103Y
2.66 2.40 2.27,S26T+N37K+S38E
ND ND ND,K36Q+S38N+Q95D
3.45 2.61 2.05,Y31V+A40L+Q96H
1.95 2.07 2.27,L30V+R34C+S62W
ND 3.04 3.01,Q27L+S33V+Q96I

Picked from the list: the 7 lowest averages where every replicate gave a value.

changes,log10 Kd (nM) by replicate
S25F+Y31K+N35L,-0.15 0.19 -0.05
K36F+W56Q+S103R,0.34 0.49 0.49
S25D+S33G,0.41 0.69 0.57
K36Y+Q96C,0.81 1.07 0.93
S25H+Q27T+H98T,0.78 1.14 1.01
S25M+Y31C+Q95H,1.00 1.12 1.30
P101K+L102F,1.23 1.29 1.17